The results in this text go back to patent US20160220542A1, “SYNERGISTIC ACTIVITY OF MODULATORS OF THE NO METABOLISM AND OF NADPH OXIDASE IN THE SENSITISATION OF TUMOR CELLS” (Universitaetsklinikum Freiburg, priority 2010, published 2016).

SMILES strings stand for the structures.

This experiment has as its system extracellular superoxide anion production of MKN-45 cells. Put plainly: extracellular superoxide anion production of MKN-45 cells (Cu SOD bell curve shift). The class given is cell-based. To be noted: lower epothilone concentration; malvidin chloride, artemisinin; 150 mM 3-AT, 8 hours.

For `COc1cc(-c2[o+]c3cc(O)cc(O)c3cc2O)cc(OC)c1O`, the “effect on superoxide anion production” value is on record as “did not demonstrate any effect”.
